Data on one compound can be found in ChEMBL document CHEMBL1129735, “High-affinity alpha-aminobutyric acid A/benzodiazepine ligands: synthesis and structure-activity relationship studies of a new series of tetracyclic imidazoquinoxalines” (J Med Chem, 1996).

Chains of the proteins cited; added tags and fusions are not shown. Lines headed by an entry give the natural chain unless they say otherwise; changes in a name come on top.
UniProt O09028: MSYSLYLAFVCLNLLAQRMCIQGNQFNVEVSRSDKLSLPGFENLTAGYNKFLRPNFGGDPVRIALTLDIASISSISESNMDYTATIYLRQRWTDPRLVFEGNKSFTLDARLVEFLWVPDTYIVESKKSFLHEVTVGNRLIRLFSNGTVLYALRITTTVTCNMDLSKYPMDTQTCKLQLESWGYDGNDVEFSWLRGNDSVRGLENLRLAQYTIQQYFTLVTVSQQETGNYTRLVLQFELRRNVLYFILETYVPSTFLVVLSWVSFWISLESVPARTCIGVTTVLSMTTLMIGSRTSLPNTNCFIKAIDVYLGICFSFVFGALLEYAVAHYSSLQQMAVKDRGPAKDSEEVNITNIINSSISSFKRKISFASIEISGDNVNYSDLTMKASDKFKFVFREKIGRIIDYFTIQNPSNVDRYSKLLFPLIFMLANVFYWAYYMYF
UniProt P15431: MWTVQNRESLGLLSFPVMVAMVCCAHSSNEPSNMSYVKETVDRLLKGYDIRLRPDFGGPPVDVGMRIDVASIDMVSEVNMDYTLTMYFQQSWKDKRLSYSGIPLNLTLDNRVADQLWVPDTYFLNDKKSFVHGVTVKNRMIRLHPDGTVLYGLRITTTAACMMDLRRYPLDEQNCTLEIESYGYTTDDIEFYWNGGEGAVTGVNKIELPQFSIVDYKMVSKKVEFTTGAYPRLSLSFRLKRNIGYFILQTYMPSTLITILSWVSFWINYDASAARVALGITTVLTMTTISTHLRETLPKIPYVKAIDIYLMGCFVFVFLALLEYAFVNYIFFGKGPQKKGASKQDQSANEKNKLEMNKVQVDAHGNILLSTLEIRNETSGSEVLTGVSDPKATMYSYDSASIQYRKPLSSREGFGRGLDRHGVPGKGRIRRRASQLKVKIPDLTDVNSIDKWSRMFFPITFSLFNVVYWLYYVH
UniProt P18506: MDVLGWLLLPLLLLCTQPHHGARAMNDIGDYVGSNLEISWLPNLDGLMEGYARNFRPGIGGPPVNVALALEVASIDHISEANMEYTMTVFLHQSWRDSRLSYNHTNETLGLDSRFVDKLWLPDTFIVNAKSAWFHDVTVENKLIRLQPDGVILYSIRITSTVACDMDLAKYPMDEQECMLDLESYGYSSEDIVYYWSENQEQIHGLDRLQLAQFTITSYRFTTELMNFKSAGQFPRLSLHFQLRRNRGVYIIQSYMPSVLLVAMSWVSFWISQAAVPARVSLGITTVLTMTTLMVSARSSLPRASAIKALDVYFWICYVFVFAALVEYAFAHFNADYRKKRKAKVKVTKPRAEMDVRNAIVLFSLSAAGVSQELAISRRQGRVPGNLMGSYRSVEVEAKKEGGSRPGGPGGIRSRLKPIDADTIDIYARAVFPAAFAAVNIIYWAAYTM
UniProt P18508: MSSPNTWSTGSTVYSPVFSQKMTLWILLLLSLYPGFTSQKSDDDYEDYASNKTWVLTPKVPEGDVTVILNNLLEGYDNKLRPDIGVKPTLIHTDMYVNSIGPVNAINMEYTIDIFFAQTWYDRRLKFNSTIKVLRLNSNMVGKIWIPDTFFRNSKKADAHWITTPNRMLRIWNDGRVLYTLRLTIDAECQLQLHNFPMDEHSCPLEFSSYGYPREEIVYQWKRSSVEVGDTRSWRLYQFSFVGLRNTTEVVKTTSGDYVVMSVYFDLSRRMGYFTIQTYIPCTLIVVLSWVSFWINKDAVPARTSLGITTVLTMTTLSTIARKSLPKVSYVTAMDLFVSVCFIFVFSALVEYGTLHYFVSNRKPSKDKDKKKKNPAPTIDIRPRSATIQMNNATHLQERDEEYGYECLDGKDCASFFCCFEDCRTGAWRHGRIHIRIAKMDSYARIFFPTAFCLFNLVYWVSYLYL
UniProt P19969: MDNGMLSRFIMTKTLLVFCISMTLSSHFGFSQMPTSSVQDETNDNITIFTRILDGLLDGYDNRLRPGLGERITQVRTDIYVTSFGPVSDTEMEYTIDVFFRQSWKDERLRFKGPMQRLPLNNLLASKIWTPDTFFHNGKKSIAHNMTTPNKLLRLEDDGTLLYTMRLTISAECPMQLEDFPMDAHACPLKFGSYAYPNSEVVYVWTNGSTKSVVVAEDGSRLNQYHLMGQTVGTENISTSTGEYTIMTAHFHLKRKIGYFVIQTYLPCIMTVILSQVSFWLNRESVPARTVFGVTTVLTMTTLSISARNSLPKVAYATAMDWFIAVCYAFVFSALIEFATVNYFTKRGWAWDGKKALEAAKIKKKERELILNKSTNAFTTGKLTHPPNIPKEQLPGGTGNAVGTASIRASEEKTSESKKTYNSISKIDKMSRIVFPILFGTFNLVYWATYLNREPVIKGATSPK
UniProt P20236: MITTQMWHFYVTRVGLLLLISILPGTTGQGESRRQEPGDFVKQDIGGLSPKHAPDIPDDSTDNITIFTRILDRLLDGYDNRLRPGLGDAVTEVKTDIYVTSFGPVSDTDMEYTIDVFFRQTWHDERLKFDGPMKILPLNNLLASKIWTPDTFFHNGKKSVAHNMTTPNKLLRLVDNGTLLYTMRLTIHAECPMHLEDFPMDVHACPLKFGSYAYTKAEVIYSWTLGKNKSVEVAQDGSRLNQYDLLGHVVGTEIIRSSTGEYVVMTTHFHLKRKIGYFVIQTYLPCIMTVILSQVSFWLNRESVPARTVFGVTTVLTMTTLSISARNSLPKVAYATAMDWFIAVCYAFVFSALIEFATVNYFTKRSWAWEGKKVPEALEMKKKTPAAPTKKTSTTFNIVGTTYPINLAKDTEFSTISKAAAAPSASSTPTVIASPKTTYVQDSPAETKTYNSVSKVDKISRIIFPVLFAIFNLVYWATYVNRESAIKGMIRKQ
UniProt P23574: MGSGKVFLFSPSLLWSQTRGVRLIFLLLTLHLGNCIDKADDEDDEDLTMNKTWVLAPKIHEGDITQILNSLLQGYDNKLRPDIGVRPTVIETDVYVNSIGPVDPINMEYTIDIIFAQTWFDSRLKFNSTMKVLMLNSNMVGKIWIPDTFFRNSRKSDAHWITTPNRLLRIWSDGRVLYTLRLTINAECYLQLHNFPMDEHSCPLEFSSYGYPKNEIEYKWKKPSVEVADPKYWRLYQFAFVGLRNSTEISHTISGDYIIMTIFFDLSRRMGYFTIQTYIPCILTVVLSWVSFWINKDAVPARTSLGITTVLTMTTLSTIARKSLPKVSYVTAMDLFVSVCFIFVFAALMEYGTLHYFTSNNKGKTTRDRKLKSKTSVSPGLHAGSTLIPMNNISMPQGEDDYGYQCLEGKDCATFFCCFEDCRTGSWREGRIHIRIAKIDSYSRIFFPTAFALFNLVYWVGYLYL
UniProt P23576: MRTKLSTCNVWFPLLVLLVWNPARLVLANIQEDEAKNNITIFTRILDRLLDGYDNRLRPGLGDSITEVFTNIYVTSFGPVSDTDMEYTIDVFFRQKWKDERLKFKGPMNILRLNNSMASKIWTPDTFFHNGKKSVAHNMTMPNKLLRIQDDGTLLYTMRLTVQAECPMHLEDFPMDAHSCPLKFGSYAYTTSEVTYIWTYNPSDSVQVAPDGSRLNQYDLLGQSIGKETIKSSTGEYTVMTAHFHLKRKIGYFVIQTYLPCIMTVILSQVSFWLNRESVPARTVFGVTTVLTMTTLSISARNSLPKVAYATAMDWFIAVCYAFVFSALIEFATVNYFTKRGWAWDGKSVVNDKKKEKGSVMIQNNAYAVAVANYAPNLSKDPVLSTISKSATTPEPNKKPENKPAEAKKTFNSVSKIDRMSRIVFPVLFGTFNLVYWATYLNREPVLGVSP
UniProt P28473: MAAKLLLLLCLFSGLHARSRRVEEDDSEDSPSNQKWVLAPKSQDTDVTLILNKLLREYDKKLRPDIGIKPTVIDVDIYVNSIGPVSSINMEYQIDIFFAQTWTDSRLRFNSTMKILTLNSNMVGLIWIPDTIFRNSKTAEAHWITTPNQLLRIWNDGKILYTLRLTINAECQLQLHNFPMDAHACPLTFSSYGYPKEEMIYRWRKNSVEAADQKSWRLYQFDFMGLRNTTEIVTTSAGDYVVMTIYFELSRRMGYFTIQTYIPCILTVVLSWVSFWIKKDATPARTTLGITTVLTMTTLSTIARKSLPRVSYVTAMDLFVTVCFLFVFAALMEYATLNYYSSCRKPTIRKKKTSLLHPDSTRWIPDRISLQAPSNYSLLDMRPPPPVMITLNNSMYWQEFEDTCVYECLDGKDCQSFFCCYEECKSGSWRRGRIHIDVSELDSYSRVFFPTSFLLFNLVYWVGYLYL
UniProt P30191: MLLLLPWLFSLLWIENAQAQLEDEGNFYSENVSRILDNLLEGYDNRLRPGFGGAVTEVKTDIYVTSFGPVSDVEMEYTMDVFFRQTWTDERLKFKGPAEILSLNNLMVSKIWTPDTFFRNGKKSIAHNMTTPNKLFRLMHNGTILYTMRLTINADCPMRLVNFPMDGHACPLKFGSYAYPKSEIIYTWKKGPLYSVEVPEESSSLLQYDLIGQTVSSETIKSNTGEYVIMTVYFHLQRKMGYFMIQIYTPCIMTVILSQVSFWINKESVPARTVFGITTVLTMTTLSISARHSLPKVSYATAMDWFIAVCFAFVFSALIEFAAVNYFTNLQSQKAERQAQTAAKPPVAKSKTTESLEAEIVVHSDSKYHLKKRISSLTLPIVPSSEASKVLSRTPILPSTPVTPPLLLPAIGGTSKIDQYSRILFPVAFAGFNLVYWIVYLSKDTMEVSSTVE
UniProt P62813: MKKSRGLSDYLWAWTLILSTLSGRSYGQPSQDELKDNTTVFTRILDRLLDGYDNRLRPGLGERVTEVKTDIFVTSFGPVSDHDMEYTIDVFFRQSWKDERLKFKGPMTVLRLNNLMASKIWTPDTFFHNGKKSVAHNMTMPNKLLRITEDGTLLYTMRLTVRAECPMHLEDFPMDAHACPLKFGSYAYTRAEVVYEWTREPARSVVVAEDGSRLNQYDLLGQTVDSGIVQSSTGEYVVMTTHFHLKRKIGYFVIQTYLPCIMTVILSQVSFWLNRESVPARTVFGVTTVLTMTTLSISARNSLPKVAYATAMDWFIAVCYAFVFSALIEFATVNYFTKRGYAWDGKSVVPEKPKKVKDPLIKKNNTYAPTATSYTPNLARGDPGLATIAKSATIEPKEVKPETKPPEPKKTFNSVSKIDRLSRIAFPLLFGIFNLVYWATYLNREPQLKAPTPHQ
UniProt P63079: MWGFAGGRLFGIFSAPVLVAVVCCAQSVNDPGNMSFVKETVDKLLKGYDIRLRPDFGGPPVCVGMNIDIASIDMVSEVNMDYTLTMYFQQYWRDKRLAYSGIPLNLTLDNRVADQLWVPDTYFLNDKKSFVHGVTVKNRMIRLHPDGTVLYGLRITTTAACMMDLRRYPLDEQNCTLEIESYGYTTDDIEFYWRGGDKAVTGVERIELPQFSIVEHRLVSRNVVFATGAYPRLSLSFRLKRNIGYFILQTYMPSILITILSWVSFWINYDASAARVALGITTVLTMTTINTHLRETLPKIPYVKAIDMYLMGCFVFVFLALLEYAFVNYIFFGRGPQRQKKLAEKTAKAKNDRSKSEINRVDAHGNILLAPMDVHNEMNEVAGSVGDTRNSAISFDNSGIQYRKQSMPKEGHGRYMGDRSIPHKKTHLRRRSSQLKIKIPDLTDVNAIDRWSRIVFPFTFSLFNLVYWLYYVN
UniProt P63138: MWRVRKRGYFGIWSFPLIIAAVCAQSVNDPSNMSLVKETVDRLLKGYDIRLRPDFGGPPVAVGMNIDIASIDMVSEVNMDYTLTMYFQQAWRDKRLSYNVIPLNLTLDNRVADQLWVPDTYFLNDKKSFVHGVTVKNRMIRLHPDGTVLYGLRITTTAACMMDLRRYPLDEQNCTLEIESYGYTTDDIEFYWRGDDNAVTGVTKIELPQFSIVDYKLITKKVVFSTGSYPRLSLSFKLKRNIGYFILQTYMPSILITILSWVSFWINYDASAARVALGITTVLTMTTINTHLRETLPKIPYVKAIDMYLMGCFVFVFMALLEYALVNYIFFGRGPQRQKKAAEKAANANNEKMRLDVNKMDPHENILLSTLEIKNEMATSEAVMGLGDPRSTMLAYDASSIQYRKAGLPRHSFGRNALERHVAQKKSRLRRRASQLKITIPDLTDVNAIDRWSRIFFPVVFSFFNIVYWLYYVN
UniProt Q9ES14: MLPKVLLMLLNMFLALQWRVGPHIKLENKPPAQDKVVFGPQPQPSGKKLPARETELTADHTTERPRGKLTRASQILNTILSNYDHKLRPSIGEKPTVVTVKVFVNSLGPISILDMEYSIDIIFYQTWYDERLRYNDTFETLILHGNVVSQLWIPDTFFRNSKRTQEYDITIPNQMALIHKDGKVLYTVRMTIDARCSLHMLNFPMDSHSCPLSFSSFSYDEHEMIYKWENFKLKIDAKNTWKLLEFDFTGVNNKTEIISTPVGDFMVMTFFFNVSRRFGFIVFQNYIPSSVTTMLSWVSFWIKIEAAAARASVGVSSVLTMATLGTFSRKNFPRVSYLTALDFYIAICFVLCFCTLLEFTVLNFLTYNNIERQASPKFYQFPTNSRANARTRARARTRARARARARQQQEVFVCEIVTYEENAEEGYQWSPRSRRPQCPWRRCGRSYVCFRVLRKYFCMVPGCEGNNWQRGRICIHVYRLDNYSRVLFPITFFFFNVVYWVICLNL

The target of the assay is GABA-A receptor; anion channel (Rattus norvegicus) (UniProt O09028+P15431+P18506+P18508+P19969+P20236+P23574+P23576+P28471+P28473+P30191+P62813+P63079+P63138+Q91ZM7+Q9ES14). Nature of the assay: Binding to GABA-A receptor complex relative to TBPS binding to picrotoxin convulsant site. It counts as functional. The essentials:
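Rat brain membranes ([…]) with 2 nM [35S]TBPS in 1 M NaCl, 10 mM Tris/HCl pH 7.4, 120 min at 24 °C; drugs added from methanol (≤0.2%, constant). Filtration read-out, nonspecific binding with 2 mM unlabeled TBPS.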

Take `CC(C)n1c(=O)c2c(-c3noc(C4CC4)n3)ncn2c2ccccc21` [PANADIPLON]: the Ratio came to 0.06.
